In the assay the target is T1, R172Q mIDH2 (Homo sapiens, UniProt P48735, R172Q).
T1 sequence (P48735 40-452 R172Q): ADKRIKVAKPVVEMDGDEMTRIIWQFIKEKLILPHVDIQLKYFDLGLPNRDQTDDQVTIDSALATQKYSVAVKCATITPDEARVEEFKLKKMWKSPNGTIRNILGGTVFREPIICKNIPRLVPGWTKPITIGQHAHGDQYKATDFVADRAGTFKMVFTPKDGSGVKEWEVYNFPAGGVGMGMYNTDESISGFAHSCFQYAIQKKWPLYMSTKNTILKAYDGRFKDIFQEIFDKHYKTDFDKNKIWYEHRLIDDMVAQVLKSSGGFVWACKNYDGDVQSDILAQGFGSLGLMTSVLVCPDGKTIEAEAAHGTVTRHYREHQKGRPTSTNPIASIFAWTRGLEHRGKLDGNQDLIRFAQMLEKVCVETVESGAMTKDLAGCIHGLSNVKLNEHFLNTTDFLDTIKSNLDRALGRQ
The assay can be described thus: mIDH2-R172Q enzyme assay (Reaction Biology), diaphorase/resazurin coupled. A general note: The colour change of resazurin is a common sign of viable cells or microbes.

As a reminder, the EC50 is the concentration needed to bring the measured effect to its halfway point. Low readings indicate a more potent agent, high ones a less potent agent.

In the case of `O=C(Nc1cccc(C(F)(F)F)c1)Nc1cc(S(=O)(=O)NC2CC2)ccc1-c1ccsc1` [AGI-6780], a half-maximal response (EC50) required 9 nM.
